DT40 TDP1 no CPT: qHTS for Inhibitors of human tyrosyl-DNA phosphodiesterase 1 (TDP1): qHTS in cells in absence of CPT. actives 15% (n = 420,000). DT40 Tdp1-/- hTDP1 cells, no CPT, ATP luminescence, 48 h. Potency, µM (highest dose often 46.2 µM), for inactives: top-dose activity change, negative = growth inhibition, actives largely listed as inhibitors; note: potency is the fitted concentration of half-maximal effect; % is set by controls: 0 for no effect and ±100 for the full control effect; nearly all actives have a fitted effect of over 55% in size
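Readout: luminescence from CellTiter-Glo after 30 min in the dark at RT. Cells: DT40 Tdp1-/- with stable hTDP1, 400/well. Exposure: compounds alone, ≥48 hr, 37 °C.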
TDP1 inh: TDP1 (human) enzyme inhibition; actives 0.28% (n = 350,000); recombinant TDP1, AlphaScreen DNA substrate cleavage; Potency, µM (series often up to 130 µM), inactives show top-dose activity change, negative = inhibition, hits mostly inhibitors; note: potency is the fitted concentration of half-maximal effect; % is set by controls: 0 for no effect and ±100 for the full control effect; nearly all actives have a fitted effect of over 40% in size
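Signal: AlphaScreen proximity between streptavidin donor and anti-FITC acceptor beads on intact substrate. Reaction: Tdp1 1 nM, substrate 15 nM final, 5 min RT after 15 min compound preincubation.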
uPA surface inh: cell surface uPA generation inhibition; cell surface uPA generation assay, qHTS; Potency, µM (series often up to 38.3 µM), inactives show top-dose activity change, negative = inhibition, most hits filed as inhibitors; actives 0.31% (n = 330,000); AID 540303; active = well fitted inhibition curve with a large enough effect; inconclusive = small, poorly fitted or top-dose-only effect; inactive = no such curve, though single readings can be large or run the other way; tested in mouse RAW 264.7 cells; note: potency is the fitted concentration of half-maximal effect; % is set by controls: 0 for no effect and ±100 for the full control effect; nearly all actives have a fitted effect of over 55% in size
miR-21 reporter: miR-21 reporter, rising signal; Potency, µM (titrated, usually from 38.3 µM), without a hit: at the highest dose reporter change, positive = more light; AID 2288; 340,000 tested, under 10 active; HeLa miR-21 FLuc reporter, luciferase, 48 h; active = well fitted rising curve with a large enough effect; inconclusive = small, poorly fitted or top-dose-only effect; inactive = no such curve, though single readings can be large or run the other way;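 note: % of control where 0% means no effect; miR-21 action dims this reporter so a rising signal means less miR-21 action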
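HeLa cells endogenously expressing miR-21, stably carrying CMV-driven firefly luciferase with a downstream miR-21 binding site, 2000 cells/well. Titrations up to approximately 40 uM, 48 hours; luciferase luminescence read.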
TDP1 cell CPT: DT40-hTDP1 cell growth loss with CPT | actives 12% (n = 420,000) | Potency, µM (series often up to 46.2 µM), without a hit: top-dose activity change, negative = growth inhibition, usual class: inhibitors | AID 686979 | chicken DT40 Tdp1-/-;hTDP1 cells + 20 nM CPT, ATP luminescence, 48 h; note: potency is the fitted concentration of half-maximal effect; % is set by controls: 0 for no effect and ±100 for the full control effect; nearly all actives have a fitted effect of over 55% in size
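Chicken DT40 Tdp1-/- cells stably complemented with human TDP1 were seeded at 400 cells/well in medium containing 20 nM camptothecin, exposed to pin-transferred compounds, and grown at 37 °C for at least 48 hr. Viability was read as ATP luminescence.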
* = called active by the depositor; [ ] = remark or other dose. A selection: hits, their analogues and other compounds. The true share with any hit is near 16%. Unless noted, calls come from the whole dose curve; as a rule, active = well fitted curve in the direction sought with a large enough effect; inconclusive = small, poorly fitted or top-dose-only effect, or another doubt; inactive = no such curve, though single readings can be large; an effect the other way counts as inactive or inconclusive.

`OC(c1ccc2ccccc2n1)c1c(Cl)cccc1Cl` (configuration not stated) gave DT40 TDP1 no CPT inconclusive, uPA surface inh 4% and TDP1 cell CPT inconclusive.
`CC(C)C(C(=O)NCC1CCCO1)N(C(=O)CNS(=O)(=O)c1ccc(F)cc1)C1CCCCC1` (configuration not stated) gave DT40 TDP1 no CPT -19%, uPA surface inh 4%, miR-21 reporter 2% and TDP1 cell CPT 6%.
`CN1CCN(S(=O)(=O)c2ccc(NC(=O)Cc3ccc([N+](=O)[O-])cc3)cc2)CC1` gave DT40 TDP1 no CPT -4%, TDP1 inh 7%, uPA surface inh -16%, miR-21 reporter 0% and TDP1 cell CPT -4%.
For COC(=O)C(Sc1ccc(Cl)cc1)C1SC(=S)N(Cc2ccccc2)C1=O (configuration not stated) the results were DT40 TDP1 no CPT 2.1µM* and TDP1 cell CPT 2.9µM*.
For CCN(CC(=O)Nc1ccc(N2CCOCC2)cc1)C(=O)c1ccc(C(F)(F)F)cc1 the results were DT40 TDP1 no CPT -14%, TDP1 inh 0%, uPA surface inh -3%, miR-21 reporter -4% and TDP1 cell CPT -9%.
For CCn1nnc(NC(=O)COc2ccc([N+](=O)[O-])cc2)n1 the results were DT40 TDP1 no CPT 4%, uPA surface inh 2%, miR-21 reporter -4% and TDP1 cell CPT 9%.
Screening O=C(O)c1ccccc1C(=O)N1N=C(c2ccccc2)CC1c1ccccc1O (configuration not stated) returned DT40 TDP1 no CPT -12%, TDP1 inh 8%, uPA surface inh -4%, miR-21 reporter -52% and TDP1 cell CPT -14%.
Screening CCC(C)CNC(=O)c1cccc(OC2CCN(CC(C)(C)C)CC2)c1 (configuration not stated) returned DT40 TDP1 no CPT 29µM*, uPA surface inh 1% and TDP1 cell CPT inconclusive.
CN(C)S(=O)(=O)N1CCC(Oc2cccc(C(=O)NC3CCCCC3)c2)CC1 was read as DT40 TDP1 no CPT inconclusive, TDP1 inh 2%, uPA surface inh -12%, miR-21 reporter 24% and TDP1 cell CPT 18µM*.
CS(=O)(=O)N1CCC(Oc2cccc(C(=O)NCCCC3CCCC3)c2)CC1 was read as DT40 TDP1 no CPT 21µM*, uPA surface inh -13% and TDP1 cell CPT inconclusive.
Screening CN(C1(C)CCS(=O)(=O)C1)S(=O)(=O)c1ccc2ccccc2c1 (configuration not stated) returned DT40 TDP1 no CPT -23%, uPA surface inh -4% and TDP1 cell CPT -12%.
`Cc1ccc(C)c(CSC2=NN3CCCC(=O)N=C3S2)c1` gave DT40 TDP1 no CPT 16µM*, uPA surface inh 2%, miR-21 reporter -4% and TDP1 cell CPT inconclusive.
For O=C1CCCN2N=C(SCC(=O)Nc3cccc(F)c3)SC2=N1 the results were DT40 TDP1 no CPT 13µM*, TDP1 inh 2%[0.0935 µM], uPA surface inh 0%, miR-21 reporter 6% and TDP1 cell CPT 21µM*.
Cc1ccc(NC(=O)CSC2=NN3CCCC(=O)N=C3S2)c(C)c1 was read as DT40 TDP1 no CPT inconclusive, uPA surface inh 7%, miR-21 reporter 0% and TDP1 cell CPT inconclusive.
For O=C1CCCN2N=C(SCC(=O)Nc3nccs3)SC2=N1 the results were DT40 TDP1 no CPT -10%, TDP1 inh 45µM*, uPA surface inh 6%, miR-21 reporter 0% and TDP1 cell CPT -4%.
`COc1ccc(CNCC(=O)Nc2sccc2C#N)cc1` gave DT40 TDP1 no CPT -29%, TDP1 inh 5%, uPA surface inh -4%, miR-21 reporter -27% and TDP1 cell CPT 4%.
Screening CC1CCCCC12NC(=O)N(CC(=O)OCC(=O)Nc1ccc(F)cc1[N+](=O)[O-])C2=O (configuration not stated) returned DT40 TDP1 no CPT -8%, TDP1 inh 1%, uPA surface inh 4% and TDP1 cell CPT -16%.

Not a retest: entries from further up.
CS(=O)(=O)N1CCC(Oc2cccc(C(=O)NCCCC3CCCC3)c2)CC1 was read as DT40 TDP1 no CPT 21µM*, uPA surface inh -13% and TDP1 cell CPT inconclusive.
Screening CN(C1(C)CCS(=O)(=O)C1)S(=O)(=O)c1ccc2ccccc2c1 (configuration not stated) returned DT40 TDP1 no CPT -23%, uPA surface inh -4% and TDP1 cell CPT -12%.
